Results on one molecule are retold here after patent US12606797B2, “Methods of detection of mechanically-activated platelet activation and uses thereof” (Arizona Board of Regents on Behalf of the University of …, priority 2018, dated 2026).

The structures appear in SMILES notation.

This experiment concerns human platelets (GFP, PRP). In words: Platelet aggregation induced with biochemical agonists (optical aggregometer). The format is cell-based. Particulars: platelet-rich plasma; 10 uM ADP, 10 μg/mL epinephrine; 1 mM CaCl2, 5 min, 37° C. The protocol:
Platelet aggregation was assessed in PRP or GFP samples employing dual channel optical aggregometer (Model 560-VS, Chrono-Log Corporation, Havertown, PA). […] Platelet count in aggregation mixture was adjusted to 150-200×10^3 plt/μL (in GFP) and to 300-350×10^3 plt/μL (in PRP), final CaCl2 concentration was 1 mM. Aggregation was started by adding mentioned agonists and running for 5 minutes at 37° C. with 1000 rpm stirring. The changes in relative light transmittance were recorded, and arbitrary values for each aggregation curve were calculated with Aggrolink software (Chrono-Log Corporation, Havertown, PA).
To define the molecular signature of SMPA, biochemical versus mechanical platelet activation by uniform shear stress applied in the hemodynamic shearing device (HSD) was compared. To induce biochemical activation, human GFP were treated with the panel of physiologically relevant soluble agonists-ADP, epinephrine, TRAP-6, thrombin, collagen or arachidonic acid. […] Initially, the P-selectin exposure, as a known marker of platelet activation and α-granule secretion, was detected employing mono immunostaining and quantified by flow cytometry. Those cells showing high fluorescence intensity (≥3000 AU) were gated as P-selectin positive platelets and marked as sub-population P6 (FIGS. 2A-2G).

In the case of `CNC[C@H](O)c1ccc(O)c(O)c1` [epinephrine], the “ability to induce platelet aggregation in PRP” value is reported as “induce platelet aggregation”.
